The values below come from patent US12384808B2, “Modulators of TNF-α activity” (Forward Therapeutics, Inc., priority 2022, dated 2025).

By UniProt entry, the sequences of proteins in these tests, tags left out. Residues count along the entry.
UniProt P01375, 77-233 limits assumed: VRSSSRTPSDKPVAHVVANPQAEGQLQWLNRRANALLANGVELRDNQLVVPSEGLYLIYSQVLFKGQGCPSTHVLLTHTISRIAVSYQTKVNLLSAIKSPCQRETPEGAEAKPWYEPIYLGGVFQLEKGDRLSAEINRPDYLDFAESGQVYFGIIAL

This test addresses TNFα (Homo sapiens, UniProt P01375). Kind of test: TNFα Induced HEK Blue Cellular Assay. The conditions noted are these: read-out: IC50 value; HEK Blue TNFα reporter cells, TNFα 100 pg/ml, 24 hrs at 37° C., secreted alkaline phosphatase (QUANTI-Blue) read at 620 nm. Format: cell-based. On the procedure: TNFα Induced HEK Blue Cellular Assay
Test articles were diluted in DMSO and serially diluted into 384 well assay plate (Corning 3765), at final concentrations ranging from […] to 0.5 nM. HEK Blue™ TNFα reporter cells were added at a final density of 10,000 cell per well in assay media [DMEM (Gibco, cat #21063-029), 10% fetal bovine serum (ExcelBio, cat #FND500), 1% Penicillin-Streptomycin (Solarbio, cat #P1400-100]. TNFα (R&D 210-TA-020/CF) was then added to the assay plate at a final concentration of 100 pg/ml. This plate was then incubated for 24 hrs at 37° C. and 5% CO2. Secreted alkaline phosphatase expression was then measured using QUANTI-Blue™ (Invivogen), according to manufacturer instructions and read on an Envision microplate reader at 620 nm.
Inhibition data for test compound over a range of concentration was plotted as percentage inhibition of the test compound (100%=maximum inhibition). IC50 values were determined after correcting for background [(sample read−mean of low control)/(mean of high control−mean of low control)] where by the low control is DMSO without stimulation and high control is DMSO with stimulation. The IC50 is defined as the concentration of test compound which produces 50% inhibition and was quantified using the 4 parameter logistic equation to fit the data.

On to `CN1C(=O)c2cccc(OC(F)F)c2[C@H]2C[C@@H]1c1nc3ccc(-c4cnc(NP(C)(C)=O)nc4)cc3n12`, for which the half-maximal inhibitory concentration (IC50) (commonly the point on the concentration scale where inhibition reaches its midpoint) is < 100 nM.

As for `CN1C(=O)c2cccc(OC(F)F)c2[C@H]2C[C@@H]1c1nc3ccc(-c4ccc(NP(C)(C)=O)nc4)cc3n12`, the concentration for half-maximal inhibition (IC50) was < 100 nM.
